# Laboratory results from patent US11725005B2.
# Tested on: c-Abl2
structure (smiles),measurement,value
Cc1ccc(NC(=O)c2ccc(CN3CCN(C)CC3)cc2)cc1Nc1nccc(-c2cncc(-c3cnns3)c2)n1,IC50,> 1000 nM
